This is an account of results in PubChem BioAssay AID1987 (The Scripps Research Institute Molecular Screening Center, 2009).

Amino acid sequences for entries named in this document (tags omitted).
UniProt P53041, whole entry: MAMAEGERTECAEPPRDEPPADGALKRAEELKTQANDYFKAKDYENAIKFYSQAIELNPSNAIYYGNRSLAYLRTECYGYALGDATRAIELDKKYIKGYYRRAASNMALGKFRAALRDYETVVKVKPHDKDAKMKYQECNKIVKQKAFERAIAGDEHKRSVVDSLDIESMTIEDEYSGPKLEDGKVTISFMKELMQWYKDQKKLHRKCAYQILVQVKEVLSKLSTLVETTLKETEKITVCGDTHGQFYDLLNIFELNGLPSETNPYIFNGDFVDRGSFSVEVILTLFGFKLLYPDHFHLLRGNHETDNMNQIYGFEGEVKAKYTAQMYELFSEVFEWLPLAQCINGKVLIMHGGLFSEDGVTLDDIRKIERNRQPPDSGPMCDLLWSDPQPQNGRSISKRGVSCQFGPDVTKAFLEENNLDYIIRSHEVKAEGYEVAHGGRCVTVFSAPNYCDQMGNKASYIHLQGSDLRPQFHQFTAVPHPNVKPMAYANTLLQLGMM

The list shows a part of the results, in another mix than the full data. Some of these compounds have results that are not shown, active ones among them. Calls of active or inactive are those of the source.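 How the source made its calls: active means inhibition above the campaign's mean inhibition across all tested compounds plus 3 SD (cut at about 9.5% in these data); inactive means the rest.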

The target in the assay is Serine/threonine-protein phosphatase 5 (Homo sapiens) (UniProt P53041). As to the kind of experiment: inhibition of human PP5 catalytic activity – biochemical, fluorescence, primary screen (AID 1987).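 Further: 0% = DMSO only and 100% = 100 µM cantharidin control.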 Conditions: purified PP5c, OMFP substrate fluorescence; at 6.7 µM; active compounds read high.
Consider `COc1ccc(Br)c(C(=O)NCC2(N3CCCCC3)CCCCC2)c1`, for which the inhibition was inactive: 0.9%.

As to `CN(C)c1cccc(C(=O)NCC2(N(C)C)CCCCC2)c1`, the inhibition is inactive: -1.91%.

`CC(C)Oc1ccc(C(=O)NCC2(N(C)C)CCCCC2)cc1`: the inhibition was inactive: 1.13%.

On to `O=C(OC1CN2CCC1CC2)C(CO)(c1ccccc1)c1ccccc1` (centres undefined), for which the inhibition is inactive: -2.66%.

Regarding `COc1ccc(Cl)cc1C(=O)NCC1(N(C)C)CCCCC1`, the inhibition was inactive: -0.16%.

For the compound `COc1cccc(C(=O)NCC2(N3CCCCC3)CCCCC2)c1`, the inhibition is inactive: -2.08%.

In the case of `O=C(NCC1(N2CCCCC2)CCCCC1)c1cccc(Cl)c1`, the inhibition is inactive: 2.46%.

Take `CN(C)C1(CNC(=O)c2ccc(Br)cc2)CCCCC1`: the inhibition is inactive: 2.85%.

`COc1cc(C(=O)NCC2(N(C)C)CCCCC2)c([N+](=O)[O-])cc1OC`: the inhibition is inactive: 0.56%.

In the case of `O=C(NCC1(N2CCCCC2)CCCCC1)c1cc(F)c(F)cc1Cl`, the inhibition is inactive: 3.28%.

On to `C=CCN1CCN(CCOC(=O)C(O)(c2ccccc2)c2ccccc2)CC1`, for which the inhibition was inactive: 0.06%.

Regarding `O=C(NCC1(N2CCCCC2)CCCCC1)c1cccc(Br)c1`, the inhibition was inactive: 1.42%.

Regarding `CCN1CCCC(OC(=O)C2(O)c3ccccc3C=Cc3ccccc32)C1` (centres undefined), the inhibition is inactive: 0.71%.

As to `Cc1cc(C(=O)NCC2(N3CCCCC3)CCCCC2)ccc1[N+](=O)[O-]`, the inhibition is inactive: -0.72%.

For `COc1ccc(C(=O)NCC2(N(C)C)CCCCC2)cc1`, the inhibition was inactive: 0.84%.

Take `CN(C)c1ccc(C(=O)NCC2(N(C)C)CCCCC2)cc1`: the inhibition was inactive: -0.46%.

On to `CN(C)C1CCCC1OC(=O)C(O)(c1ccccc1)c1ccccc1` (centres undefined), for which the inhibition is inactive: -2.51%.

For the compound `Cc1ccccc1C(=O)NCC1(N2CCCCC2)CCCCC1`, the inhibition was inactive: -0.64%.

As for `CC(C)N1C(=O)CC2(CCN(CCOC(=O)C(O)(c3ccccc3)c3ccccc3)CC2)C1=O`, the inhibition is inactive: 1.71%.

`COc1cc(SC)ccc1C(=O)NCC1(N(C)C)CCCCC1`: the inhibition was inactive: -2.14%.

In the case of `CCN(CC)CC(C)C(C)OC(=O)C(O)(c1ccccc1)c1ccccc1` (centres undefined), the inhibition is inactive: -1.5%.

Take `Cc1ccc(C(=O)NCC2(N3CCCCC3)CCCCC2)cc1`: the inhibition is inactive: 2.08%.

With `O=C(NCC1(N2CCCCC2)CCCCC1)c1cc([N+](=O)[O-])ccc1Cl`, the inhibition is inactive: 1.37%.

On to `CN1[C@@H]2CC[C@H]1CC(OC(=O)C(O)(c1ccccc1)c1ccccc1)C2` (some centres undefined), for which the inhibition is inactive: 0.38%.
